The text below walks through data of patent US7655810B2, “Phosphine transition metal complex, method for producing the same, and antitumor agent containing the same” (Nippon Chemical Industrial Co., Ltd., priority 2005, dated 2010).

This data set relates to female Sprauge-Dawley SPF rats. Kind of data set: Toxicity test by single oral administration to rats. The conditions noted are these: single oral dose in corn oil, female SD rats, observed until the 14th day. It is filed as in vivo, rat. The procedure: After female Sprauge-Dawley SPF rats (CrJ: CD (SD)) were quarantined and acclimated for about a week, healthy 8-week-old rats were selected in groups of five rats. The rats was fasted overnight before administration, and single oral doses of 20, 50, 100, and 300 mg/kg of the phosphine gold complex, and 10, 20, 50, and 100 mg/kg of cisplatin dissolved in corn oil were administrated the respective rats. The rats were observed 10 and 30 minutes and 1, 2, and 4 hours after administration, and further observed daily until the 14th day.

Some results are limits rather than exact numbers.

As to “Bis(1,2-bis((2R,5R)-2,5-(dimethylphosphorano)benzene))gold (I) Chloride [Example 4]”, the “LD50 (50% lethal dose)” value is recorded as more than 300 mg/kg.
